Ratio IC50 data for one compound are collected here from ChEMBL document CHEMBL4184177, “Synthesis and bioevaluation study of novel N-methylpicolinamide and thienopyrimidine derivatives as selectivity c-Met kinase inhibitors” (Bioorg Med Chem, 2018).

The species named for test [1] is Homo sapiens. The test can be described thus: Selectivity ratio of IC50 for c-Kit (unknown origin) to IC50 for c-Met (unknown origin).
For test [2], the species on record is Homo sapiens. The test can be described thus: Selectivity ratio of IC50 for VEGFR2 (unknown origin) to IC50 for c-Met (unknown origin).
The species entered for test [3] is Homo sapiens. The test can be described thus: Selectivity ratio of IC50 for EGFR (unknown origin) to IC50 for c-Met (unknown origin).
The species entered for test [4] is Homo sapiens. The test can be described thus: Selectivity ratio of IC50 for FLT3 (unknown origin) to IC50 for c-Met (unknown origin).

Take `Cc1cc(=O)n(-c2ccc(F)cc2)nc1C(=O)Nc1ccc(Oc2ncnc3ccsc23)c(F)c1`: the Ratio IC50 in the test listed under Homo sapiens [1] is 195; in the test filed under Homo sapiens [2] it was 23.7; in the test filed under Homo sapiens [3], 431; in the test filed under Homo sapiens [4], 59.4.
